From publication PMC6522927, “Fibrate-based N-acylsulphonamides targeting carbonic anhydrases: synthesis, biochemical evaluation, and docking studies” (Journal of Enzyme Inhibition and Medicinal Chemistry, 2019) come the findings set out here.

By UniProt entry, the sequences of proteins in these tests, tags left out. Residues count along the entry.
UniProt O43570, 25-354 limits assumed: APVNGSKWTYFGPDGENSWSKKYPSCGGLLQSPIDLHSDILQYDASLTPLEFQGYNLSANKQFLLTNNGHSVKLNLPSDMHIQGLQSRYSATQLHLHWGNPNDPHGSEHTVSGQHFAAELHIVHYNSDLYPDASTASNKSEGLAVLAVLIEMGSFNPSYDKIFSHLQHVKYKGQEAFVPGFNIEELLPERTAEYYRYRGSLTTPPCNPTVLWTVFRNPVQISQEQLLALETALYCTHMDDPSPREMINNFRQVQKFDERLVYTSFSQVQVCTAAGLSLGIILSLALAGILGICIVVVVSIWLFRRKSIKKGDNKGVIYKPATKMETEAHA
UniProt P00915, whole entry: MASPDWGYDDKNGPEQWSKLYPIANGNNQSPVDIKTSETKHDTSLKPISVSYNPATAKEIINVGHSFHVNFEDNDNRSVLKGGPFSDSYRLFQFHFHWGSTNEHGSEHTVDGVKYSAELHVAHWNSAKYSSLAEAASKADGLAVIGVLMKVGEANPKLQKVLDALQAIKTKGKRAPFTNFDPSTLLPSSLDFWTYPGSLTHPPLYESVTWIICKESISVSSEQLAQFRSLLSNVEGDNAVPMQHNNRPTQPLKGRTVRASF

Experiment [1] concerns the target hCA XII (Homo sapiens, UniProt O43570). In words: stopped-flow CO2 hydrase assay, hCA XII. The following applies: read-out: Ki hCA XII; recombinant hCA XII, CO2 hydration, 15 min preincubation.
Experiment [2] concerns the target hCA II (Homo sapiens, UniProt P00918). In words: stopped-flow CO2 hydrase assay, hCA II. Conditions: result stated in words.
Experiment [3] deals with hCA I (Homo sapiens, UniProt P00915). In words: stopped-flow CO2 hydrase assay, hCA I. The following applies: for inhibition of hCA I (in words): result stated in words.
Experiment [4] has as its target hCA IX (Homo sapiens, UniProt Q16790). In words: stopped-flow CO2 hydrase assay, hCA IX. Conditions: result stated in words.

`CCCC(Sc1nc2ccc(OCC)cc2s1)C(=O)NS(C)(=O)=O` (centres unmarked): the Ki in experiment [1] amounted to 61 µM. In addition, the “inhibition of hCA II (in words)” value in experiment [2] is listed as “no activity”. Also, the “inhibition of hCA I (in words)” value in experiment [3] is reported as “no activity”. The “inhibition of hCA IX (in words)” value in experiment [4] was “no activity”.

For `CC(C)C(Sc1nc2cc(Cl)ccc2s1)C(=O)NS(=O)(=O)c1ccccc1` (centres unmarked), the “inhibition of hCA II (in words)” value in experiment [2] is recorded as “moderately inhibited”. In addition, in experiment [3] (read-out: Ki hCA I, recombinant hCA I, CO2 hydration, 15 min preincubation), the Ki was below 10 µM. In addition, the “inhibition of hCA I (in words)” value in experiment [3] was “moderately inhibited”. In addition, in experiment [4], the “inhibition of hCA IX (in words)” value is given as “moderately inhibited”.

In general, Ki refers to the equilibrium dissociation constant of an inhibitor or competing ligand from its target.
